{
  "sequences": {"note": "By UniProt entry, the sequences of proteins in these tests, tags left out. Where a name states a change or a piece, a line headed by the entry shows the natural chain unless it says otherwise.", "UniProt Q96P20": "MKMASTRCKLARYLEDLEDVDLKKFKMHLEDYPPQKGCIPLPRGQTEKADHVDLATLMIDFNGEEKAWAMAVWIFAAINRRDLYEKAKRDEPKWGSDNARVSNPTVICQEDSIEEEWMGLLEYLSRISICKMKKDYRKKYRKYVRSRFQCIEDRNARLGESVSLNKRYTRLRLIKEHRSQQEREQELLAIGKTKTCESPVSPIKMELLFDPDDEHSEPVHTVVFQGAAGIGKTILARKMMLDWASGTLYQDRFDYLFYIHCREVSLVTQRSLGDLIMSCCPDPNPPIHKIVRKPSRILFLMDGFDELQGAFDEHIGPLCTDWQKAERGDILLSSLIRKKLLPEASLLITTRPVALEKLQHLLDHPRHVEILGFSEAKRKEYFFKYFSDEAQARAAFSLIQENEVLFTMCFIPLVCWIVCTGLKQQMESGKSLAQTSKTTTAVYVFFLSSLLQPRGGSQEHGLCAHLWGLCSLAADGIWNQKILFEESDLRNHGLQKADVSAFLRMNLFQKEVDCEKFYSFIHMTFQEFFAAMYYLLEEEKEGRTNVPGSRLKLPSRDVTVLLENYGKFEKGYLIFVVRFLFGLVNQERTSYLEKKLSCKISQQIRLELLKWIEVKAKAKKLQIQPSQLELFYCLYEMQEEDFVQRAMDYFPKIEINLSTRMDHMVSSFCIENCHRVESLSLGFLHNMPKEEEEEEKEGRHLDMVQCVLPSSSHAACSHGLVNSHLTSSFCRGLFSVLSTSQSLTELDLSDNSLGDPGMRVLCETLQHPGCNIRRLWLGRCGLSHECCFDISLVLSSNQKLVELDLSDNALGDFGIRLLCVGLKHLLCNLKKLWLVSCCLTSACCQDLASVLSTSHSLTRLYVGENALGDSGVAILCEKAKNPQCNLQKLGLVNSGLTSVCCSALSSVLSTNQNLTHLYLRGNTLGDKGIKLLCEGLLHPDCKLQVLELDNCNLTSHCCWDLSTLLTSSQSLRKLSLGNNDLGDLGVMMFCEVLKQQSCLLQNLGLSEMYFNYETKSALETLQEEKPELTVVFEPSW"},
  "source": "paper PMC11730736",
  "biological_target": "MBP-hNLRP3-ΔPYD (NLRP3.136_1036.R137C.K138A.K142A with flag.6His tag on the N-terminus of the MBP) (UniProt Q96P20)",
  "experiment": "cryo-EM structure; purified MBP-hNLRP3-ΔPYD with ADP and compound C, 4.4-4.6 mg/ml; 25 mM HEPES pH 7.4, 0.4 M NaCl, 0.2% CHAPS, 0.2 mM TCEP; D2 symmetry imposed",
  "data": [
    {"substance": "MBP-hNLRP3-ΔPYD (NLRP3.136_1036.R137C.K138A.K142A with flag.6His tag on the N-terminus of the MBP) (from UniProt Q96P20 136-1036) (domain or fragment)", "values": [
      {"measurement": "stoichiometry N", "value": 4}
    ]}
  ]
}
